# Only a part is listed here, and it is no random draw. Records with an inconclusive call do not appear. Activity calls are given as the source filed them. Calls follow the shape of the dose curve; as a rule, active = well fitted activation curve with a large enough effect; inconclusive = small, poorly fitted or top-dose-only effect, or another doubt; inactive = no such curve, though single readings can be large or run the other way.
# Assay: qHTS of TDP-43 Inhibitors; also: % of control where 0% means no effect; nearly all actives have a fitted effect of over 50% in size
# Settings: TDP-43 expressing yeast growth rescue, BacTiter-Glo, 24 h; at 46.1 µM (top of the series) unless noted
row,Compound,growth rescue (activation)
1,COc1ccccc1C(=O)NCC1(N2CCOCC2)CCCCC1,inactive: 9.15%
2,O=P1(N(CCCl)CCCl)SCCCS1,inactive: -8.48%
3,CCCCOc1ccc(C(=O)NCC2(N3CCOCC3)CCCCC2)cc1,inactive: 11.3%
4,O=C(NCC1(N2CCCCC2)CCCCC1)c1ccc(F)cc1,inactive: -9.33%
5,COc1ccc(NC2CCN(CCc3ccccc3)CC2)c(OC)c1,inactive: -11.1%
6,CCOC(=O)N1CCC(Nc2ccc(F)cc2)CC1,inactive: 16.8%
7,O=c1[nH]c2ccccc2n1C1CCN(C(c2ccccc2)c2nnnn2C2CCCCC2)CC1 (stereo unspecified),inactive: 0%
8,CCOC(=O)N1CCC(Nc2cccc(C)c2)CC1,inactive: 16.3%
9,COc1cc(C(=O)NCC2(N(C)C)CCCCC2)ccc1OC(F)F,inactive: -21.6%
10,O=c1[nH]c2ccccc2n1C1CCN(C(c2cccc3ccccc23)c2nnnn2C2CCCC2)CC1 (stereo unspecified),inactive: 6.03%
11,COc1ccc(C(=O)NCC2(N3CCCCC3)CCCCC2)cc1,inactive: 1.62%
12,CC(C)(C)OC(=O)N1CCC(N(C(=O)c2ccccc2)c2ccc(F)cc2)CC1,inactive: 14.1%
13,COc1ccc(C(=O)NCC2(N3CCCCC3)CCCCC2)c(OC)c1OC,inactive: -20.4% [at 0.397 µM]
14,CCC(c1nnnn1C1CCCC1)N1CCC(n2c(=O)[nH]c3ccccc32)CC1 (stereo unspecified),inactive: 0%
15,O=C(NCC1(N2CCCCC2)CCCCC1)c1ccc(=O)[nH]c1,inactive: 9.07%
16,O=C(NCC1(N2CCCCC2)CCCCC1)c1cccs1,inactive: 8.23%

row,Compound,growth rescue (activation)
1,CCCCn1nnnc1C(c1cccs1)N1CCC(n2c(=O)[nH]c3ccccc32)CC1 (stereo unspecified),inactive: 14.3%
2,CSc1ccccc1C(=O)NCC1(N2CCCCC2)CCCCC1,inactive: -7.98%
3,Cc1cccc(NC2(C#N)CCN(Cc3ccccc3)CC2)c1,inactive: 21.3%
4,O=C(NCC1(N2CCCCC2)CCCCC1)c1ccc(Cl)nc1,inactive: 5.77%
5,O=c1[nH]c2ccccc2n1C1CCN(C(c2ccccc2OC(F)(F)F)c2nnnn2C2CCCCC2)CC1 (stereo unspecified),inactive: 24.1%
6,Cc1cc(C)cc(N(C(=O)c2ccccc2)C2CCN(C(=O)OC(C)(C)C)CC2)c1,inactive: -11.7%
7,O=C(NCC1(N2CCOCC2)CCCCC1)c1cc2ccccc2o1,inactive: 15%
8,N#CC1(Nc2ccccc2)CCN(Cc2ccccc2)CC1,inactive: -4.3%
9,O=C(NCC1(N2CCCCC2)CCCCC1)c1ccc(Cl)s1,inactive: 14.7%
10,O=C(OC1CN2CCC1CC2)C1c2ccccc2Oc2ccccc21 (stereo unspecified),inactive: 25.9%
11,O=c1[nH]c2ccccc2n1C1CCN(C(c2cc3ccccc3o2)c2nnnn2C2CCCCC2)CC1 (stereo unspecified),inactive: 0%
12,COc1ccc(Cl)cc1C(=O)NCC1(N2CCOCC2)CCCCC1,inactive: -0.311%
13,O=C1C(O)=C([N+](=O)[O-])C(=O)C(O)=C1[N+](=O)[O-],inactive: -24.2%
14,CCOC(=O)N1CCC(Nc2ccc(OC)cc2)CC1,inactive: -3.55%
15,CCCCn1nnnc1C(c1ccc(OC)cc1)N1CCC(n2c(=O)[nH]c3ccccc32)CC1 (stereo unspecified),inactive: 6.2%

# Reference: PubChem BioAssay AID652104 (National Center for Advancing Translational Sciences (NCATS), 2013)
